Measurements taken from patent publication US9526785B2, “Pharmaceuticals for oral delivery” (Enteris BioPharma, Inc., priority 2013, dated 2016).
Values joined by “and” are separate entries in the source; they are usually repeats but may differ in a detail not shown here. Identical values can stand only once.

Assay: Kanamycin and tobramycin plasma PK after IV bolus in dogs
Type: in vivo, Beagle dogs
Conditions: single IV bolus 0.10 mg
Procedure: Adult Beagle dogs weighing approximately 10 to 15 kg were used in the study. The animals were housed at Sinclair Research Center, Columbia, Mo. either individually or in pairs in over-sized dog runs. […] A 12-hour light/12-hour dark photoperiod was maintained. Room temperature was set to be maintained at 20±5° C. Relative humidity was monitored but not controlled. Animal room and pen cleaning were performed according to the testing facility (Sinclair) SOPs.
Animals were fasted overnight prior to drug administration and throughout the blood collection period.
Adult female Beagle dogs, weighing 9-15 kg were used in the oral and IV studies. Dogs were fasted overnight before the beginning of each study but were allowed free access to water. On the day of the study, one pre-dose blood sample of 3 mL was collected from each animal.
After administration of the drug, 3 mL blood samples were collected from the brachial vein at various time-points up to 240 minutes (4 hours) post-administration. Blood samples were collected into new heparinized monovette sampling syringes. The samples were placed on ice before being centrifuged for 10 minutes at approximately 2750 rpm at 2-8° C. Each tube was labeled with the dog ID # and time-point, and they were stored at −20° C. pending shipment.
Plasma samples were diluted appropriately with the kit assay buffer.
The maximum plasma concentration (Cmax) values and their times of occurrence (Tmax) were obtained directly from the plasma concentration vs. time profiles. The areas under the plasma concentration-time curves (AUClast) were estimated by the linear trapezoidal rule from time zero to the time of the last observed plasma concentration.

With `NC[C@H]1O[C@H](O[C@H]2[C@H](O)[C@@H](O[C@H]3O[C@H](CO)[C@@H](O)[C@H](N)[C@H]3O)[C@H](N)C[C@@H]2N)[C@H](O)[C@@H](O)[C@@H]1O` [Kanamycin] the “Plasma Concentration, individual dogs” value (10 min) was 70.40 ng/mL, the “Plasma Concentration, individual dogs” value (15 min) was 56.24 ng/mL and 54.88 ng/mL and the “Plasma Concentration, individual dogs” value (20 min) was 41.85 ng/mL.
